How the values were obtained:
[1] = tested on: CT26 murine colorectal cancer tumors; assay: Treatment of CT26 tumors in mice; type: in vivo, Balb/c mice; conditions: two IP injections of 300 µM 500 µL on days 1 and 3
[2] = biological target: human STING WT protein (Homo sapiens, UniProt Q86WV6); assay: HTRF competitive binding to STING protein (human STING WT binding kit); conditions: read-out: binding affinity to STING protein; HTRF competitive assay, 6His-tagged human STING WT, d2-labelled ligand, 3 h RT; EC50 in method, IC50 in Fig. S1

Sequences of proteins named here, by UniProt entry; tags and fusion partners are left off.
UniProt Q86WV6, whole entry: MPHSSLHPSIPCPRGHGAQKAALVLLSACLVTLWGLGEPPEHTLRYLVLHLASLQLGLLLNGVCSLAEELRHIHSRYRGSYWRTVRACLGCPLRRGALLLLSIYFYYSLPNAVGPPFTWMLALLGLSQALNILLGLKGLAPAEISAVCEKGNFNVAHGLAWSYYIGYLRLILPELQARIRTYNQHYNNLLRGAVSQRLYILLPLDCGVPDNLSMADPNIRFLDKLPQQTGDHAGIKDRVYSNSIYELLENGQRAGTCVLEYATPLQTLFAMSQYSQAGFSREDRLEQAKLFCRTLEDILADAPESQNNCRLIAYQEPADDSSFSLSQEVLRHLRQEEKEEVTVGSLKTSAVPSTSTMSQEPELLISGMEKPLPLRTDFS

COc1cc2sc(C(=O)CCC(=O)O)cc2cc1OCCCOc1cc2sc(C(=O)CCC(=O)O)cc2cc1OC
therapeutic activity on animals (in words) ([1]; CT26 tumors): does not exhibit any therapeutic activity | mice with tumor eradicated / survived out of treated ([1]; CT26 tumors 100-150 mm3, female Balb/c, followed 65 days): 0/5 | time in which all animals developed endpoint size tumors (2,000 mm3) ([1]; same range stated for vehicle): 14–20 days p.i. | IC50 [2]: 24 nM
